Numbering of substitutions follows the chain as printed.
B1: TM-50: anti-TMEM106B monoclonal antibody; CDR-H1-3 SEQ ID NO: 31, 73, 115; CDR-L1-3 SEQ ID NO: 157, 183, 220 (antibody, V domains shown)
VH: QVQLKESGPVLVAPSQSLSITCTVSGFSLTNYGVHWVRQPPGKGLEWLGVIWAGGNTNYNSALMSRLSISKDNSKSQVFLKMNSLQTDDTAMYYCAKEAKLLRSYAMDYWGQGTLVTVSA
VL: DVQMTQTTSSLSASLGDRVTISCRASQDINNYLYWYQQKPDGTVKLLIYYTSMLHSGVPSRFSGSGSGTDYSLTISNLEQEDIATYFCQQGSTLMYTFGGGTKLEIK
B2: TM-62: anti-TMEM106B monoclonal antibody; VH SEQ ID NO: 468, VL SEQ ID NO: 504 (antibody, V domains shown)
VH: QVQLQQPGTELVRPGSSVKLSCKAAGYTFTRYWMHWVKQRPIQGLEWIGNIDPSDSETQYNPKFKDKATLTVDRSSSTAYMHLSSLTSEDSAVYYCARLTTLDYAMDYWGQGTSVTVSS
VL: QIVLTQSPAIMSASPGEKVTISCSASSSVSYMYWYQQKAGSSPKPWIHRTSNLASGVPARFSGSGSGTSYSLTIRSMEAEDAATYYCQQYHSYPPTFGVGTKLELK
modifications: Variable Heavy Chain -- TM-62; Variable Light Chain -- TM-62
B3: TM-49: anti-TMEM106B monoclonal antibody; CDR-H1-3 SEQ ID NO: 33, 75, 117; CDR-L1-3 SEQ ID NO: 156, 182, 219 (antibody, V domains shown)
VH: B2 VH with T9A, A25S, Y32F, E57Q, Q59H, P62Q, R74K, H82Q, T100I, L102V
VL: B2 VL with A39P, A59V, R75S, V99A
B4: TM-4: anti-TMEM106B monoclonal antibody; CDR-H1-3 SEQ ID NO: 5, 38, 81; CDR-L1-3 SEQ ID NO: 123, 163, 187 (antibody, V domains shown)
VH: EVQVQQSGPVLVKPGASVKMSCKASGYTFTDYYMNWVKQSHGKNLEWIGVINPYNGGTSYHQKFKGKATLTVDKSSSTAYMELNSLTSEDSAVYYCARAATVVAGFDYWGQGTTLTVSS
VL: QAVVTQESALTTSPGETVTLTCRSSTGAVTTSNYANWVQEKPDHLFTGLIGGTNNRAPGVPARFSGSLIGDKAALTITGAQTEDEAIYFCVLWYSNHLVFGGGTKLTVL
B5: TM-8: anti-TMEM106B monoclonal antibody; CDR-H1-3 SEQ ID NO: 9, 42, 85; CDR-L1-3 SEQ ID NO: 127, 167, 191 (antibody, V domains shown)
VH: QIQLVQSGPELKKPGETVKISCKASGYTFTDYPMHWVKQAPGKGFKWMGVIYTDTGEPKYAEVFKGRFAFSLETSASTAYLQINNLKNEDTATYFCVRRLAYWGQGTLVTVSA
VL: DIKMTQSPSSMYASLGERVTITCKASQDINSYLSWFQQKPGKSPKTLIFRANRLVDGVPSRFSGSGSGQDYSLTISSLEYEDMGIYYCLQYDEFPLTFGAGTKLEMK
B6: TM-65: anti-TMEM106B monoclonal antibody; VH SEQ ID NO: 471, VL SEQ ID NO: 507 (antibody, V domains shown)
VH: QVQLQQPGAEFVKPGASVRLSCKTSGYTFTSSWMHWVKQRPGQGLEWIGEINPKNGGTNYNEKFKTKATLTVDKSSNTAYMQLSSLTSEDSAVYYCTIPTWFTYWGQGTLVTVSS
VL: DIQMNQSPSSLSASLGDTITITCRASQNINIWLSWYQQKPGNVPKLLIYKASNLHTGVPSRFSGSGSGTGFTLTISSLQPEDIATYYCLQGQSYPYTFGGGTKLGIK
modifications: Variable Heavy Chain -- TM-65; Variable Light Chain -- TM-65
B7: TM-71: anti-TMEM106B monoclonal antibody; VH SEQ ID NO: 476, VL SEQ ID NO: 512 (antibody, V domains shown)
VH: EVQLVESGGALVKPGGSLKLSCAASGFTFSNYAMSWVRQTPEKRLEWVATIGYGGSYSYYPDSVKGRFTISRDNAKNTLYLQMSSLRSEDTALYYCARQDSNYEGVWFAYWGQGTLVTVSS
VL: DIVMTQAAPSVPVTPGESVSISCRSSKSLLHTNGNTYLFWFIQRPGQSPHLLIYRKSNLASGVPDRFSGSGSGTAFTLRISRVEAEDVGVYYCMQHLEYPFTFGSGTKLEIK
modifications: Variable Heavy Chain -- TM-71; Variable Light Chain -- TM-71, TM-72

Chains of the proteins cited; added tags and fusions are not shown. Lines headed by an entry give the natural chain unless they say otherwise; changes in a name come on top. Residues count along the entry.
UniProt Q9NUM4, 122-210: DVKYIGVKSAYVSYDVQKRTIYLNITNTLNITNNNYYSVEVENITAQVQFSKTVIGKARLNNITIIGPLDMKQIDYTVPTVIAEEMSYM

These molecules were tested against GST-TMEM106B (truncated, comprising amino acids 122-210 of SEQ ID NO:1) (Homo sapiens, UniProt Q9NUM4) (assay: Pre-mix epitope binning of anti-TMEM106B antibodies (Carterra / Lake Pharma)). Conditions: Non-binder: not capable of binding the GST-TMEM106B fusion (assigned bin 5).
Set-up: key: Non-binder: an anti-TMEM106B antibody that was not capable of binding to the GST-TMEM106B polypeptide fusion used in these binning experiments (assigned bin 5)

Molecule	Binding Community/Bin
B1	Non-binder
B2	Non-binder
B3	Non-binder
B4	Non-binder
B5	Non-binder
B6	Non-binder
B7	Non-binder
